# Values of other authors as cited in PMC7076382 (Pharmaceutics, 2020).
# Conditions: in vivo; cited from earlier work
substance,measurement,value
desmopressin,absorbed fraction,below 1%
